Test in all cases: microbe, parasite or virus in culture
One assay relates to S aureus ATCC 29313. Conditions: Staphylococcus aureus, ATCC29313.
The next assay relates to M avium ATCC 49601. Conditions: Mycobacterium avium, ATCC49601.
Assay [1] concerns M intracellure ATCC 13950. To be noted: Mycobacterium, ATCC13950.

Values after ≈ are worked out from the molar mass of the structure shown.

Data on two molecules can be found in patent US7119075B2, “Use of herbal agents for potentiation of bioefficacy of anti infectives” (priority 2003, dated 2006).

`O=C(O)c1cn(C2CC2)c2cc(N3CCNCC3)c(F)cc2c1=O` [Ciprofloxacin] showed an MIC in the assay with S aureus ATCC 29313 of 0.5 µg/mL (≈ 1.51 µM).

As to `CO[C@H]1/C=C/O[C@@]2(C)Oc3c(C)c(O)c4c(O)c(c(/C=N/N5CCN(C)CC5)c(O)c4c3C2=O)NC(=O)/C(C)=C\C=C\[C@H](C)[C@H](O)[C@@H](C)[C@@H](O)[C@@H](C)[C@H](OC(C)=O)[C@@H]1C` [Rifampicin], the MIC (in the assay with M avium ATCC 49601; in assay [1]) was 2 µg/mL (≈ 2.43 µM) in each case.
